Data on 2 molecules can be found in ChEMBL document CHEMBL2062398, “De novo peptide design with C3a receptor agonist and antagonist activities: theoretical predictions and experimental validation” (J Med Chem, 2012).

Structures are written as SMILES.

In experiment [1] the target is T1, C3a anaphylatoxin chemotactic receptor (Homo sapiens, UniProt Q16581).
T1 sequence (Q16581 whole entry): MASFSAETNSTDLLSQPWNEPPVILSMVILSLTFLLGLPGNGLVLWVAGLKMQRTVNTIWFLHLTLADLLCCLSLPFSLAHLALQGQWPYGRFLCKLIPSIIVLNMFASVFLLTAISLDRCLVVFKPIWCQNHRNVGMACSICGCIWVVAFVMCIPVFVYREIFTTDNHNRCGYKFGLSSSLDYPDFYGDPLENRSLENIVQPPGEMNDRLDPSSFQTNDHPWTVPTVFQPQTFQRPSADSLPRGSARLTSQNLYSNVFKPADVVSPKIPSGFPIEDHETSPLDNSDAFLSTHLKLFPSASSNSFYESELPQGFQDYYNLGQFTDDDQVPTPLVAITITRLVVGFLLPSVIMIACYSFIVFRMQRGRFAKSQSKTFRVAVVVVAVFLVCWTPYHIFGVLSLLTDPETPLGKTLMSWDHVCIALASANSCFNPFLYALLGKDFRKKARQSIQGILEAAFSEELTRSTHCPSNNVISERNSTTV
Description: Agonist activity at human C3a receptor expressed in RBL-2H3 cells assessed as beta-hexosaminidase activity in cell supernatant by degranulation assay. Type of experiment: functional, cell-based. The essentials:
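Transfected RBL-2H3 cells kept in DMEM, 10% FCS, 400 mg/liter G-418, 37°C, 5% CO2. Degranulation read as β-hexosaminidase activity in supernatant. Secretion expressed as percent of maximal response to 200 nM recombinant human C3a or 10 nM FLPLAR. EC50, calculated maximum and SEM from iterative curve fitting.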

Experiment [2] has as its target T1, C3a anaphylatoxin chemotactic receptor. Put plainly: Antagonist activity at human C3a receptor expressed in RBL-2H3 cells assessed as beta-hexosaminidase activity in cell supernatant compound preincubated for 10 mins by degranulation assay. It is filed as functional, cell-based. The essentials:
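RBL-2H3 cells expressing human C3aR (DMEM, 10% FCS, G-418, 37°C) were pretreated with peptide for 10 min before 200 nM recombinant human C3a or 10 nM FLPLAR was added. β-Hexosaminidase release in supernatant was measured as percent of the agonist-alone response. IC50, calculated minimum and SEM came from iterative curve fitting.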

For experiment [3] the target is unchanged. Put plainly: Antagonist activity at C3a receptor in dbcAMP differentiated human U937 cells assessed as inhibition of increase in intracellular calcium compound preincubated for 10 mins using Fluo-R staining by microplate reader. Type of experiment: functional, cell-based, U-937.
The target is the same in experiment [4]. Description: Partial agonist activity at C3a receptor in dbcAMP differentiated human U937 cells assessed as increase in intracellular calcium using […] staining by microplate reader. It is filed as functional, cell-based, U-937.

Consider `CC(=O)N[C@@H](Cc1c[nH]c2ccccc12)C(=O)N[C@@H](Cc1c[nH]c2ccccc12)C(=O)N[C@@H](CC(=O)O)C(=O)N[C@@H](CCCNC(=N)N)C(=O)N[C@@H](CCCNC(=N)N)C(=O)N[C@@H](Cc1c[nH]c2ccccc12)C(=O)N[C@@H](CCCNC(=N)N)C(=O)N[C@@H](C)C(=O)N[C@@H](CO)C(=O)N[C@@H](CCCCN)C(=O)N[C@@H](CC(C)C)C(=O)NCC(=O)N[C@@H](CC(C)C)C(=O)N[C@@H](C)C(=O)N[C@@H](CCCNC(=N)N)C(=O)O`, for which the EC50 in experiment [1] is 224 nM. The IC50 in experiment [2] was 15.5 nM; in experiment [3], 8910 nM.

For the molecule `CC(=O)N[C@@H](Cc1c[nH]c2ccccc12)C(=O)N[C@@H](Cc1c[nH]c2ccccc12)C(=O)N[C@@H](CCC(=O)O)C(=O)N[C@@H](CCCNC(=N)N)C(=O)N[C@@H](CCCNC(=N)N)C(=O)N[C@@H](Cc1c[nH]c2ccccc12)C(=O)N[C@@H](CCCNC(=N)N)C(=O)N[C@@H](C)C(=O)N[C@@H](CO)C(=O)N[C@@H](CCCCN)C(=O)N[C@@H](CC(C)C)C(=O)NCC(=O)N[C@@H](CC(C)C)C(=O)N[C@@H](C)C(=O)N[C@@H](CCCNC(=N)N)C(=O)O`, the results for the EC50 in experiment [1] and in experiment [4] were 35.5 nM and 661 nM, respectively. In addition, the IC50 in experiment [2] was 26.3 nM; in experiment [3], 1120 nM.
